Experimental data taken from US9402878B2, “Depsipeptide and uses thereof” (priority 2012, dated 2016).

Chains of the proteins cited; added tags and fusions are not shown.
UniProt P11712, whole entry, looked up: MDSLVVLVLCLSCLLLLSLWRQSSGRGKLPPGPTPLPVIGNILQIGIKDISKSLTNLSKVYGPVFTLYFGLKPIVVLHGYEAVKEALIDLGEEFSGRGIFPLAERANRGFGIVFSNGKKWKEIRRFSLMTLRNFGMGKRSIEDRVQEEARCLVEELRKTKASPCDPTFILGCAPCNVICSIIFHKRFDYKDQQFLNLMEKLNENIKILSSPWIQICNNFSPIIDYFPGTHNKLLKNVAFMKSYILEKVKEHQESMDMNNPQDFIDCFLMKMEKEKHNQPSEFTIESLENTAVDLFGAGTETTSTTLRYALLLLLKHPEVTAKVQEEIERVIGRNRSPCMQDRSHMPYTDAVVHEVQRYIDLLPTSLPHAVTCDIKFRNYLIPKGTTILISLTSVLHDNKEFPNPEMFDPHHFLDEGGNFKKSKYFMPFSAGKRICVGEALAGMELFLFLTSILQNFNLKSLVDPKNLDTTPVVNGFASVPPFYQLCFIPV

Biological target: Cyp2C9 (Homo sapiens (Human), UniProt P11712)
Experiment: Cytochrome P450 inhibitory activity, liver microsomes

sulphaphenazole
CYP2C9 % inhibition compared to vehicle (conc. 1 (1 μM)): 87.5% | CYP2C9 % inhibition compared to vehicle (conc. 2 (0.1 μM)): 55.6%
